US20160009772A1, “CELL PENETRATING PEPTIDES WHICH BIND IRF5” (priority 2012, published 2016)

Target: IRF5(222-467, S430D), S430D phosphomimetic construct of IRF5 (222-467) (human), Q13568
Experiment: TR-FRET IRF5 dimerization inhibition, S430D (222-467), peptide titrated

Binder: MANLGYWLLLLFVTMWTDVGLAKKRPKP (modifications not checked) [Ac-…-NH2 (SEQ ID NO: 4)]
- IC50: 26.4 µM
